Experimental data taken from patent US9540330B2, “Oligomer-containing hydantoin compounds” (Nektar Therapeutics, priority 2010, dated 2017).

Chains of the proteins cited; added tags and fusions are not shown. Lines headed by an entry give the natural chain unless they say otherwise; changes in a name come on top.
UniProt Q12809: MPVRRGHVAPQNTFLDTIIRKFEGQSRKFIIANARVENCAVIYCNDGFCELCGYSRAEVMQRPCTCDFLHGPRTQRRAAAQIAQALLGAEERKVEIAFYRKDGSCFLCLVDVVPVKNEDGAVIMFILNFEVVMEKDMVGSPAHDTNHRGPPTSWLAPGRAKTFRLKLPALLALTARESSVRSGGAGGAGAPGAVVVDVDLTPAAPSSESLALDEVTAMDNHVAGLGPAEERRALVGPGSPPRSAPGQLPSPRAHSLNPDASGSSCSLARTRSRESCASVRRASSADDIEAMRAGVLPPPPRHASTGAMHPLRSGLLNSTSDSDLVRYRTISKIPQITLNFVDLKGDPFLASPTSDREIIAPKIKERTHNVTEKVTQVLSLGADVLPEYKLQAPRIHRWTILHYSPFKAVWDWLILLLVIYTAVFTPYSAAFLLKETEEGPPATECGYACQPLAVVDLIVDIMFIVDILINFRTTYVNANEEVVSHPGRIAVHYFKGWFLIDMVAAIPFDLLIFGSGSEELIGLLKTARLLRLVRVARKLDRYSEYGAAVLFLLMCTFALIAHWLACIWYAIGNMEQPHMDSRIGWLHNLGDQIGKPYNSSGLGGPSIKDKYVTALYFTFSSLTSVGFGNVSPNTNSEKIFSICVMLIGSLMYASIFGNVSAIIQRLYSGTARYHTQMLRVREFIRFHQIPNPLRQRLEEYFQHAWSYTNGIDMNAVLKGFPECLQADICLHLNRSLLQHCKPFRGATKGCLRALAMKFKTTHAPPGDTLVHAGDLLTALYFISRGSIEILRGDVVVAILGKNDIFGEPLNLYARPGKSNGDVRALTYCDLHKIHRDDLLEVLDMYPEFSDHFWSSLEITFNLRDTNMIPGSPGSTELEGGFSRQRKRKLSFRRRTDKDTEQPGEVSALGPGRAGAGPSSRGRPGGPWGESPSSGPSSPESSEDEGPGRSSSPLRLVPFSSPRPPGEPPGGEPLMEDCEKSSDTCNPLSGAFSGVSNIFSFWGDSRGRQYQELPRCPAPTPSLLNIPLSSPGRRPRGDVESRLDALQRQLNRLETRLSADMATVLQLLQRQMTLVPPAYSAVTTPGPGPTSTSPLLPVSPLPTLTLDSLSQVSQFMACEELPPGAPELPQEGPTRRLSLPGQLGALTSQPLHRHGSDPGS

Biological target: T1, cloned human hERG channel (Homo sapiens, UniProt Q12809)
T1 construct: expressed in transfected cells; host or cells: HEK cells
Test: hERG current block in HEK cells, whole-cell patch clamp
Assay type: cell-based
Settings: HEK cells expressing cloned human hERG channel, 37±1° C., peak current at −40 mV; read-out: hERG (μM), IC50 for inhibition of hERG
Description: Electrophysiological measurements of hERG current were made in vitro to assess the hERG block produced by the phenyloin conjugates. hERG currents were measured in HEK cells expressing the cloned human hERG channel using the whole-cell variant of the patch clamp method. Experiments were performed at 37±1° C. hERG current was elicited by a step pulse to +10 mV for 500 ms from a holding potential of −75 mV, followed by a pulse to −40 mV for 500 ms. Peak current was measured from the pulse to −40 mV. Six concentrations of each test compound were added to the cell in a cumulative manner starting with the lowest test concentration. Each cell served as its own control and data are presented as % reduction of current amplitude achieved in the presence of drug.

For `O=C1NC(=O)C(c2ccccc2)(c2ccccc2)N1` [Phenytoin, 5,5-diphenylhydantoin, reference compound], the IC50 was 96.4 µM.
